# Results from patent US5128493A, “Platinum complexes” (Nippon Kayaku Kabushiki Kaisha, priority 1987, dated 1992).
# Assays:
# [1] = mouse, in vivo, ip
substance,measurement,setting,value
"cis-Cyclobutane-1,1-dicarboxylato-2,3-dimethyl-1,4-butanediamine Platinum [Compound No. 4]",Body weight ratio,[1],0.89
same,Solubility in water,,> 5000 µg/mL
